This data set relates to Swiss Webster mice. The following applies: mouse, in vivo.

The structures appear in SMILES notation.

`O=P(O)(O)O[C@H]1[C@H](OP(=O)(O)O)[C@@H](OP(=O)(O)O)[C@H](OP(=O)(O)O)[C@@H](OP(=O)(O)O)[C@H]1OP(=O)(O)O` [Inositol hexaphosphate, inositol hexaphosphate]: the “Effectiveness in reducing aminoglycoside toxicity (in words)” value is recorded as “very effective in reducing the toxicity of streptomycin”.

Values taken from patent US4897384A, “Drug preparations of reduced toxicity” (priority 1986, dated 1990).
